## OPERA 2.9 data: melting point values

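The numbers are reported measurements, compiled and curated for the OPERA QSAR suite. A listed value is a point estimate from one report or more. How each value was measured is not recorded, so precision varies. A value may pool stereoisomers or salt forms, and the file does not say which form was measured. Unmarked limits or estimates from the upstream databases cannot be ruled out.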

The melting point is given in degrees Celsius.

| compound | melting point (°C) |
|---|---|
| CC(=O)CC(=O)Nc1cccc(Cl)c1 | 106 |
| O=C(O[C@@H]1CO[C@@H]2OCC[C@@H]21)ON1C(=O)CCC1=O | 137.9 |
| O=C1NCC2(CCN(CCc3ccccc3)CC2)O1 | 155.4 |
| Cc1cc(C)c2c(-c3ccccc3)nc(=S)n-2[nH]1 | 329 |
| O=C(O)c1cccc2[nH]ncc12 | 286 |
| NS(=O)(=O)c1cc(C(=O)Cl)ccc1Cl | 167 |
| CCc1cc(C)c(N=C=O)c(CC)c1N=C=O | 17.9 |
| O=C1COc2ccccc2C(=O)N1 | 150 |
| CCOC(=O)C1=NOC(c2ccccc2)(c2ccccc2)C1 | 86.85 |
| Cl.FC(F)(F)c1nnc2n1CCNC2 | 264 |
| COC(=O)c1cc(Cl)cc(N)c1Cl | 57 |
| O=Cc1ccccc1OCc1ccccn1 | 74 |
| CC(C)(C)P(=O)(O)O | 192 |
| Clc1ccc(Cl)c2cnccc12 | 97.5 |
| CCC(=O)Nc1ccc(C)c(N)c1 | 122 |
| CCCCC(CC)CNS(=O)(=O)c1ccc(N=Nc2c(C)c(C#N)c(=O)n(CCCC)c2O)cc1 (stereo not drawn) | 131 |
| CC[C@]1(C/C=C2\CCCc3cc(OC)ccc32)C(=O)CC[C@@H]1O | 73.8 |
| CCOC(=O)c1noc(N)c1-c1ccccc1 | 111 |
| C=CC(=O)OCC1(CC)COCOC1 | -28.7 |
| S=c1[nH]nc(SSc2n[nH]c(=S)s2)s1 | 164.5 |
| CC(=O)Nc1c(I)c(C(=O)O)c(I)c(N(C)C(C)=O)c1I | 282 |
| Cc1cc(C)c(S(=O)(=O)N2CCCC2C(=O)O)c(C)c1 (stereo not drawn) | 85 |
| Nc1ccc(-c2cn3ccsc3n2)cc1 | 200 |
| O=C1C=CC=CC1=C1C=CNO1 | 184.5 |
| CCCC1CCC(C2CCC(c3ccc(OC(F)(F)F)cc3)CC2)CC1 (stereo not drawn) | 69.9 |
| O=S(=O)(Cl)c1cnc(Cl)nc1Cl | 97 |
| C=CC(=O)Oc1ccc(C(=O)Oc2ccc(C(=O)O[C@@H]3CO[C@H]4[C@@H]3OC[C@H]4OC(=O)c3ccc(OC(=O)c4ccc(OC(=O)C=C)cc4)c(OC)c3)cc2OC)cc1 | 80 |
| Nc1ccc(F)cc1-c1ccc(Cl)c(Cl)c1 | 60.5 |
| N#Cc1cc2c(nc1Cl)CCCC2 | 129 |
| O=C(O)c1ccc(Oc2ccc(F)cc2)cc1 | 172 |
| O=C1NC(=O)C2(CCCC2)N1 | 141 |
| COc1cc(NS(=O)(=O)c2ccc(C)cc2)c2c(c1N)C(=O)c1ccccc1C2=O | 227.7 |
| CC(C1CC1)C(O)c1ccc(Cl)cc1 (stereo not drawn) | 45.8 |
| NNC(=O)CNc1ccc(F)cc1 | 81.5 |

Excerpt, the opening 2 entries:

{"smiles": "CC(=O)CC(=O)Nc1cccc(Cl)c1", "melting point (°C)": "106"}
{"smiles": "O=C(O[C@@H]1CO[C@@H]2OCC[C@@H]21)ON1C(=O)CCC1=O", "melting point (°C)": "137.9"}

From the experimental data distributed with OPERA 2.9.